EP4847503A1, “TETRAZOLE COMPOUND, PHARMACEUTICAL COMPOSITION THEREOF AND USE THEREOF” (dated 2026)
pIC50: −log10 of the molar value.

The chains behind the UniProt entries cited, without tags or fusion partners.
UniProt P50052, whole entry: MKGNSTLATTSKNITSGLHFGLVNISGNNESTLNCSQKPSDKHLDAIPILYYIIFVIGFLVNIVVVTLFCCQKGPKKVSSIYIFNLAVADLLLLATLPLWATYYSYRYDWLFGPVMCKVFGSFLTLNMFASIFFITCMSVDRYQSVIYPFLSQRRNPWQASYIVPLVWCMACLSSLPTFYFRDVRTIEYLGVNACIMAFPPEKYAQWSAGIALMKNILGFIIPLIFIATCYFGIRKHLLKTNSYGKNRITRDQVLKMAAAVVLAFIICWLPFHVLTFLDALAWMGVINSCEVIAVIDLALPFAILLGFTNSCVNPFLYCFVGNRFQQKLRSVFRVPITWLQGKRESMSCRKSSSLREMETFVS

Tests used:
[1] = Pharmacokinetic behavior in rats; details: SD rats
Protocol: Test Example 4 Study on the pharmacokinetic behavior of the compounds of the present invention in rats
(§1) Healthy SD rats (SPF grade, source: Beijing Vital River Laboratory Animal Technology Co., Ltd.), 3 animals, male, weighing 180-250 g, were intravenously injected with 1 mg/kg of the compound at a dosing volume of 2 mL/kg. The compound was formulated with 5% DMSO + 10% Solutol + 85% Saline (w/v), and the animals were not fasted prior to the test.
as §1, with “were intragastrically administered” for “were intravenously injected”, “with 5” for “with 1”, “of 10” for “of 2”
(§2) Blood samples (approx. 0.25 mL each) were collected via the vein at 5 min, 15 min, 30 min, 1 h, 2 h, 4 h, 6 h, 8 h, and 24 h after intravenous administration, and at 5 min, 15 min, 30 min, 1 h, 2 h, 4 h, 6 h, 8 h, and 24 h after intragastric administration, respectively, using sodium heparin as an anticoagulant. After collection, the blood samples were placed on ice, and the plasma was separated by centrifugation within 1 hour (centrifugation conditions: 6000 g, 3 minutes, 2-8 °C). The concentration of the compound in plasma was determined by liquid chromatography-tandem mass spectrometry. Plasma samples were stored in a -80 °C freezer before analysis. Pharmacokinetic parameters were calculated using Phoenix WinNonlin 8.2.0 based on plasma concentration data at different time points.

[2] = Pharmacokinetic behavior in mice; details: ICR mice
Protocol: Test Example 3 Study on the pharmacokinetic behavior of the compounds of the present invention in mice
as §1, with “ICR mice” for “SD rats”, “18-25” for “180-250”, “5 mL/kg,” for “2 mL/kg. The compound was”, “(w/v). Animals” for “(w/v), and the animals”, “were” for “were not”
Healthy ICR mice (SPF grade, source: Beijing Vital River Laboratory Animal Technology Co., Ltd.), 3 animals, male, weighing 18-25 g, were intragastrically administered with 5 mg/kg of the compound at a dosing volume of 10 mL/kg, formulated with 5% DMSO + 10% Solutol + 85% Saline (w/v). Animals were fasted prior to the test.
as §2, with “0.05” for “0.25”, “cheek” for “vein”

AT1 receptor = AT1 receptor (Homo sapiens, UniProt P30556); experiment: AT1R Binding assay (Tag-lite HTRF, affinity for AT1 receptor); details: read-out: AT1R IC50; Tag-lite Angiotensin AT1 labeled Cells, 25 °C, 1 hour
Protocol: Test Example 2 Determination of the affinity of the test compounds for AT1 receptor by AT1R Binding assay
1 Reagent preparation • 1) Cell line: Tag-lite Angiotensin AT1 labeled Cells; • 2) Assay buffer: 1X TLB (5 mL 5X TLB + 20 mL H2O); 2 Inhibitory activity assay of the test compounds • 1) 1X TLB assay buffer, 4X working solutions of the test compounds, and 4X Tag-lite angiotensin receptor red agonist (Cisbio, L0007RED) were prepared; • 2) One vial of labeled-AT1R cells was thawed in a water bath at 37 °C until the ice completely melted (1-2 min). The thawed cells were quickly transferred to 5 mL of 1X TLB, mixed gently, and centrifuged at 200 g for 5 min; • 3) The supernatant was discarded, and the cells were resuspended and mixed with 1 mL of 1X TLB. Then, 1.7 mL of 1X TLB was added and mixed, and the mixture was kept at room temperature for later use; • 4) 10 µL of cells were added to a 384-well plate (Greiner, 784075) and centrifuged at 200 g at RT for 3 s; 5 µL of the 4X compound was added to the 384-well plate; 5 µL of the 4X Tag-lite angiotensin receptor red agonist was added to all test wells; • 5) The reaction plate was left to stand at room temperature of 25 °C for 1 hour, and then centrifuged at 200 g, RT for 60 s. Data was collected using an Envision HTRF detector. […]

AT2 receptor = AT2 receptor (Homo sapiens, UniProt P50052); experiment: AT2R Binding assay (Tag-lite HTRF, affinity for AT2 receptor); details: read-out: AT2R IC50; Tag-lite Angiotensin AT2 labeled Cells, 25 °C, 1 hour
Protocol: Test Example 1 Determination of the affinity of the test compounds for AT2 receptor by AT2R Binding assay
1. Reagent preparation • 1.1 Cell line: Tag-lite Angiotensin AT2 labeled Cells; • 1.2 Assay buffer: 1X TLB (5 mL 5X TLB + 20 mL H2O); 2. Activity assay of the test compounds • 2.1 1X TLB assay buffer, 4X working solutions of the test compounds, and 4X Tag-lite angiotensin receptor red agonist (Cisbio, L0007RED) were prepared; • 2.2 One vial of labeled-AT2R cells was thawed in a water bath at 37 °C until the ice completely melted (1-2 min). The thawed cells were quickly transferred to 5 mL of 1X TLB, mixed gently, and centrifuged at 200 g for 5 min; • 2.3 The supernatant was discarded, and the cells were resuspended and mixed with 1 mL of 1X TLB. Then, 1.7 mL of 1X TLB was added and mixed, and the mixture was kept at room temperature for later use; • 2.4 10 µL of cells were added to a 384-well plate (Greiner, 784075) and centrifuged at 200 g at RT for 3 s; 5 µL of the 4X compound was added to the 384-well plate; 5 µL of the 4X Tag-lite angiotensin receptor red agonist was added to all test wells; • 2.5 The reaction plate was left to stand at room temperature of 25 °C for 1 hour, and then centrifuged at 200 g, RT for 60 s. Data was collected using an Envision HTRF detector. 3. Data analysis • 3.1 Calculation of % inhibition: [formula] • 3.2 Calculation of compound IC50 using GraphPad non-linear fitting formula: Y = Bottom + (Top-Bottom)/(1+10^(∧)((LogIC50-X)*HillSlope)) [formula] • X: log value of compound concentration; Y: % inhibition 4. Experimental results

[3] = intragastric administration 5 mg/kg

- AUClast [1, 3]: 6269 ng·h/mL
- Cmax [1, 3]: 1637 ng/mL
- T1/2 [1, 3]: 4.06 h
- F(%) ([1]; intragastric administration 5 mg/kg vs intravenous 1 mg/kg): 49.5%
- AUClast ([1]; intravenous injection 1 mg/kg): 2533 ng·h/mL
- Cmax ([1]; intravenous injection 1 mg/kg): 2074 ng/mL
- Vss ([1]; intravenous injection 1 mg/kg): 1.01 L/kg
- AUClast [2, 3]: 6812 ng·h/mL
- Cmax [2, 3]: 4870 ng/mL
- T1/2 [2, 3]: 1.90 h
- AUClast ([2]; intravenous injection 1 mg/kg): 1006 ng·h/mL
- CL ([2]; intravenous injection 1 mg/kg): 17.3 mL/min/kg
- Cmax ([2]; intravenous injection 1 mg/kg): 1470 ng/mL
- Vss ([2]; intravenous injection 1 mg/kg): 0.873 L/kg
- pIC50 (AT1 receptor): < 6.00
- pIC50 (AT2 receptor): 8.37
SMILES: CC(C)Cc1cc(Nc2cnn(C)c2)c(-c2nn[nH]n2)c(N2CCN(Cc3cccnn3)[C@@H](C)C2)c1
